The numbers were not newly measured in patent US8133893B2, “Trazodone and trazodone hydrochloride in purified form” (Aziende Chimiche Riunite Angelini Francesco A.C.R.A.F. …, priority 2007, dated 2012), which cites them from elsewhere.

For this data set the following is noted: as reported in TOXNET, National Library of Medicine; cited from earlier work.

On to 1-bromo-3-chloro-propane, for which the genotoxicity entry is reported as “known genotoxic substances”.
